{"sequences": {"note": "Chains of the proteins cited; added tags and fusions are not shown. Lines headed by an entry give the natural chain unless they say otherwise; changes in a name come on top. Residues count along the entry.", "UniProt P42866, 1-386 limits assumed": "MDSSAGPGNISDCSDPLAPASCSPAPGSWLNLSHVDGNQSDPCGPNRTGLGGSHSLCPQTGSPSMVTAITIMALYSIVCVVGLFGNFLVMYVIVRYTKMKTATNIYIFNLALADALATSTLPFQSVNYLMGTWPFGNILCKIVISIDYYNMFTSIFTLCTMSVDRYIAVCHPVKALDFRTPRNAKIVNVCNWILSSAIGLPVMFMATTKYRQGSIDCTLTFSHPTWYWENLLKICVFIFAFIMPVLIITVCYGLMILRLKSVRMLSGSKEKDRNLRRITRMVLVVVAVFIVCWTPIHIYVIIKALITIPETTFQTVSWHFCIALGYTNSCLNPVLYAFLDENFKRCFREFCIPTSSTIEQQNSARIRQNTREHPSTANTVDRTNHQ"}, "source": "paper PMC5177531", "about": "(ACS chemical neuroscience, 2016)", "key": {"[1]": {"target": "mu binding sites (Oprm1 variants) in brain membranes (Mus musculus, UniProt P42866)", "assay": "Radioligand saturation binding in brain membranes"}, "[2]": {"target": "mu binding sites (Oprm1 variants) in spinal cord (Mus musculus, UniProt P42866)", "assay": "Radioligand saturation binding in spinal cord membranes"}}, "data": [{"substance": "^3H-D-Ala2,N-MePhe4,Gly(ol)5]Enkephalin [^3H-DAMGO]", "values": [{"measurement": "BMAX", "setting": "[1]; 129, brain, E11 KO", "value": "33 ± 5", "unit": "fmol/mg"}, {"measurement": "BMAX", "setting": "[1]; 129, brain, WT", "value": "31 ± 0.1", "unit": "fmol/mg"}, {"measurement": "BMAX", "setting": "[1]; C57, brain, E11 KO", "value": "103 ± 13", "unit": "fmol/mg"}, {"measurement": "BMAX", "setting": "[1]; C57, brain, WT", "value": "130 ± 7", "unit": "fmol/mg"}, {"measurement": "BMAX", "setting": "[2]; 129, spinal cord, E11 KO", "value": "78 ± 1", "unit": "fmol/mg"}, {"measurement": "BMAX", "setting": "[2]; 129, spinal cord, WT", "value": "76 ± 1", "unit": "fmol/mg"}, {"measurement": "BMAX", "setting": "[2]; C57, spinal cord, E11 KO", "value": "71 ± 2", "unit": "fmol/mg"}, {"measurement": "BMAX", "setting": "[2]; C57, spinal cord, WT", "value": "73 ± 5", "unit": "fmol/mg"}]}]}
